This passage reports IC50 results from US8592454B2, “Nitrogen-containing heterocyclic compound and use of same” (Takeda Pharmaceutical Company Limited, priority 2008, dated 2013).

Protein sequences, listed by entry. Tags and fused reporters are not part of them.
UniProt P29371, whole entry: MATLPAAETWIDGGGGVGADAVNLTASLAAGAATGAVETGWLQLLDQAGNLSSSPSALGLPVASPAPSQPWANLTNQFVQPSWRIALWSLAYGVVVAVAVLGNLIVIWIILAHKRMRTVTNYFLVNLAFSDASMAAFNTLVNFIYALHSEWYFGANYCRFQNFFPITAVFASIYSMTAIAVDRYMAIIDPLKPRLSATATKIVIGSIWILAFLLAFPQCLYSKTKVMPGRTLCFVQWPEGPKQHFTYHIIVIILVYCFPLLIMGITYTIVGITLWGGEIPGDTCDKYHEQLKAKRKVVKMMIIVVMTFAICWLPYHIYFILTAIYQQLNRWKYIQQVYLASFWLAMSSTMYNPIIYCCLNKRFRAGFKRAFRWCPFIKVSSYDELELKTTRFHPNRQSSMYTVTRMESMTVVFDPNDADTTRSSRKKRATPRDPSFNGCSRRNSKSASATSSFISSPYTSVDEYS

The target in the assay is Human NK3 (hNK3) receptor (Homo sapiens (Human), UniProt P29371).

`CC(=O)N1CCC(C(=O)N2C[C@@H](N(C)C(=O)N(C)c3cc(C(F)(F)F)cc(C(F)(F)F)c3)[C@H](c3ccc(Cl)c(Cl)c3)C2)CC1` (racemic) [Example 66, 1-[(3S*, 4R*)-1-[(1-acetylpiperidin-4-yl)carbonyl]-4-(3,4-dichlorophenyl)pyrrolidin-3-yl]-3-[3,5-bis(trifluoromethyl)phenyl]-1,3-dimethylurea] yielded an IC50 of 0.14 µM.

For orientation: IC50 means the concentration that inhibits the measured activity by half.
